Patent US6458580B1, “Fungal sulphur source and method of using the same” (Commonwealth Scientific and Industrial Research Organisation, priority 1997, dated 2002)

Test system: Neocallimastix sp.LM1
Test: In vitro growth of Neocallimastix sp. LM1 with test compound as sole source of sulphur (decrease in media pH)
Conditions: not given

| SMILES | Relative Growth (ΔpH × 100) |
| --- | --- |
| CSCC[C@H](N)C(=O)O [Methionine] | 39 |
| N#C[S-].[K+] [Potassium Thiocyanate] | 2 |
| O=S(=O)([O-])[O-].[Na+].[Na+] [Sodium sulfate] | 5 |
| O=S([O-])([O-])=S.[Na+].[Na+] [Sodium thiosulfate] | 5 |

Same assay, conditions: 0.5 mM, Neocallimastix sp. LM1

| SMILES | growth as sole sulphur source (in words) |
| --- | --- |
| CSSC [Dimethyl disulfide] | better growth |
| O=C(O)CCS [MPA, 3-mercaptopropanoic acid] | growth comparable to sodium sulphide and somewhat better than cysteine |

Same assay, conditions: test compound 0.5 mM as sole sulphur source; five days at 39° C.; […]; previously tested compounds adjusted relative to […]

| SMILES | Relative Growth (ΔpH × 100) |
| --- | --- |
| Cl.N[C@@H](CS)C(=O)O [Cysteine (HCl)] | 56 |
| N[C@@H](CS(=O)O)C(=O)O [Cysteine sulfinic acid] | 1 |
| CSSC [Dimethyl disulfide] | 96 |
| NCCS(=O)O [Hypotaurine] | 8 |
| O=S([O-])[O-].[Na+].[Na+] [Sodium sulfite] | 4 |
| CC(=N)S [Thioacetamide] | 6 |
| CC(O)=S [Thioacetic acid] | 0 |
| NC(N)=S [Thiourea] | 2 |
